Experimental data taken from ChEMBL document CHEMBL4425169, “Discovery of MK-7145, an Oral Small Molecule ROMK Inhibitor for the Treatment of Hypertension and Heart Failure” (ACS Med Chem Lett, 2016).

Tests used:
[1] = target: T1, ATP-sensitive inward rectifier potassium channel 1 (Homo sapiens, UniProt P48048); assay: Inhibition of ROMK (unknown origin) after 30 mins by 86Rb+ efflux assay
T1 sequence (P48048 whole entry): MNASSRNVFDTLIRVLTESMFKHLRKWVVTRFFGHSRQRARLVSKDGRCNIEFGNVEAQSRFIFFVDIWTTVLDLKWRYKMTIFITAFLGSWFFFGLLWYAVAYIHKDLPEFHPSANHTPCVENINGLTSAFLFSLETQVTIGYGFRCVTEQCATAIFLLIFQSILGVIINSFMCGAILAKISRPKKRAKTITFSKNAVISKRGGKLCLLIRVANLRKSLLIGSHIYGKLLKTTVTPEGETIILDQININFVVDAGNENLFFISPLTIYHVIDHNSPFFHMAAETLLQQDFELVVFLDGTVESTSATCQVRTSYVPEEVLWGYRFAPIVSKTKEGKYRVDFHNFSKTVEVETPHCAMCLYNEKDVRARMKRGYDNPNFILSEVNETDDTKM

[2] = target: T1, ATP-sensitive inward rectifier potassium channel 1; assay: Inhibition of ROMK (unknown origin) expressed in CHO cells after 6 mins by electrophysiological assay; format: cell-based
[3] = target: T1, ATP-sensitive inward rectifier potassium channel 1; assay: Inhibition of ROMK (unknown origin) after 30 mins by Tl+ influx assay

IC50 [1] | IC50 [2] | IC50 [3] | SMILES
45 nM | 15 nM | – | Cc1c(C(O)CN2CCN(CC(O)c3ccc4c(c3C)COC4=O)CC2)ccc2c1COC2=O (stereo not given)
134 nM | – | 59 nM | Cc1c([C@H](O)CN2CCN(C[C@@H](O)c3ccc4c(c3C)COC4=O)CC2)ccc2c1COC2=O
112 nM | – | – | Cc1c([C@H](O)CN2CCN(C[C@H](O)c3ccc4c(c3C)COC4=O)CC2)ccc2c1COC2=O
